Values of other authors, collected in US8440813B2, “Antiviral nucleoside analogs” (BioCryst Pharmaceuticals, Inc., priority 2007, dated 2013).

Tested on: HCV
Details: human, in vivo; cited from earlier work

NC(=O)c1ncn([C@@H]2O[C@H](CO)[C@@H](O)[C@H]2O)n1 [Ribavirin, 1-β-D-ribofuranosyl-1-1,2,4-triazole-3-carboxamide]
toxicity: significant toxicity
